{"source": "patent US20250140406A1", "about": "“CLASSIFYING TUMORS AND PREDICTING RESPONSIVENESS” (Oncocyte Corporation, priority 2022, published 2025)", "key": {"[1]": {"test_system": "cancer cell lines classified IM, MSL, M", "experiment": "PRISM screen compound sensitivity correlated with IM, MSL and M subtype of cell lines (101 gene signature)", "type": "cell-based"}, "[2]": {"test_system": "cancer cell lines, DetermaIO classes", "experiment": "Association of PRISM compound sensitivity with DetermaIO (DTIO) cell line classes", "type": "cell-based", "conditions": "correlation of PRISM compound sensitivity with DTIO"}}, "data": [{"substance": "sodium-monofluorophosphate", "values": [{"measurement": "IM Corr test", "setting": "[1]; correlation of PRISM compound sensitivity with IM subtype correlation, test cell set (188 cell lines)", "value": 0.1269}, {"measurement": "M Corr test", "setting": "[1]; correlation of PRISM compound sensitivity with M subtype correlation, test cell set (188 cell lines)", "value": "−0.1347"}, {"measurement": "MSL Corr test", "setting": "[1]; correlation of PRISM compound sensitivity with MSL subtype correlation, test cell set (188 cell lines)", "value": "−0.08529"}, {"measurement": "TNBCType train", "setting": "[1]; subtype (IM, MSL or M) the PRISM compound sensitivity is associated with, training cell set (371 cell lines), 101 gene signature", "value": "MSL"}, {"measurement": "DTIO Corr test", "setting": "[2]; test cell set (188 cell lines)", "value": 0.04504}, {"measurement": "DTIO Corr train", "setting": "[2]; training cell set (371 cell lines)", "value": "−0.02506"}]}]}
